logP: 3.23
Compound: Ic1ccccc1

From the SangsterLogP compilation
